Measured values as given in patent US11498853B2, “Water with switchable ionic strength” (QUEEN'S UNIVERSITY AT KINGSTON, priority 2010, dated 2022).

Experiments:
[1] = Reversible protonation of amine additives in H2O monitored by conductivity; type: physicochemical
Method: 1:1 w/w H2O and THEED was used because a 1:1 v/v solution was too viscous to pour accurately. A trigger gas chosen from CO2, air or nitrogen was bubbled at identical flow rates through the solution via a narrow gauge steel tube and the conductivity of the solution was measured periodically using a Jenway 470 Conductivity Meter (Bibby Scientific, NJ, US) having a cell constant of 1.02 cm^−1.
The deprotonation reactions of the ionic solutions of additives in water were monitored in a similar manner, and the conductivity plot is shown in FIG. 8.
1:1 v/v solutions of the various additives and distilled, deionised water were prepared in six dram glass vials and transferred to a fritted glass apparatus which acted as a reaction vessel. The fritted glass apparatus consisted of a long narrow glass tube leading to a fine glass frit having a diameter of approximately 4 cm. The other end of the glass frit was connected to a cylindrical glass tube which held the solution of the additive during contacting with the trigger gas. […]
A trigger gas chosen from CO2, air or nitrogen was bubbled through the solution via the glass frit at a flow rate of 110 ml min^−1 as measured by a J&W Scientific ADM 2000 Intelligent Flowmeter (CA, USA). For each conductivity measurement, the solution was transferred back to a six dram vial, cooled to 298 K and measured in triplicate. […]

[2] = Separation of THF from aqueous phase and retention of additive on switching with CO2, by 1H NMR; type: physicochemical
Method: (§1) The volumes of each phase were recorded.
The graduated cylinders were capped with rubber septa. […] A second narrow gauge steel tube was provided to vent the gaseous phase.
as §1

## N, N-(dimethylamino)ethanol [DMAE]
[1]
  rise in conductivity on CO2 bubbling: largest rise in conductivity
[2]
  % Additive Retained: 98.0 ± 0.2% and 93.9 ± 2.1% and 91.7 ± 2.6% and 98.3 ± 0.4% and 73.5 ± 2.0%
  Amount of additive retained: 73.5 ± 2.0% mol %

Values joined by “and” are separate entries in the source; they are usually repeats but may differ in a detail not shown here. Equal entries are not always repeated.
